Results as given in ChEMBL document CHEMBL5137064, “Therapeutic Potential and Activity Modulation of the Protein Lysine Deacylase Sirtuin 5” (J Med Chem, 2022).

By UniProt entry, the sequences of proteins in these tests, tags left out. Where a name states a change or a piece, a line headed by the entry shows the natural chain unless it says otherwise.
UniProt Q9NXA8: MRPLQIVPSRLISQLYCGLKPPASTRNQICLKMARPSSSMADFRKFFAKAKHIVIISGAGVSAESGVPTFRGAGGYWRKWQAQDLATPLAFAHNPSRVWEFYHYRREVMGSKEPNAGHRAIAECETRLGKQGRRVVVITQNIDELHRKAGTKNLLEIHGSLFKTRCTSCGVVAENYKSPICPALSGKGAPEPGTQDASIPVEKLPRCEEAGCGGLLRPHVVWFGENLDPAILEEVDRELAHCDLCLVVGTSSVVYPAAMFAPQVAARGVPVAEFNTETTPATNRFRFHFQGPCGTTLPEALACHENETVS

Legend:
Conditions in all cases: filed as activator
[1] = target: T1, NAD-dependent protein deacylase sirtuin-5, mitochondrial (Homo sapiens, UniProt Q9NXA8); assay: Activation of SIRT5 (unknown origin) assessed as fold increase in deacetylase activity at 200 uM relative to control
[2] = target: T1, NAD-dependent protein deacylase sirtuin-5, mitochondrial; assay: Activation of SIRT5 (unknown origin) assessed as fold increase in deacetylase activity at 50 uM relative to control
[3] = target: T1, NAD-dependent protein deacylase sirtuin-5, mitochondrial; assay: Activation of SIRT5 (unknown origin) assessed as fold increase in deacetylase activity at 10 uM relative to control

With `CCOC(=O)C1=CN(C(=O)c2ccccc2)C=C(C(=O)OCC)C1c1cccc(OC)c1` the fold change (FC) [1] was 4, the fold change (FC) [2] was 3 and the fold change (FC) [3] was 1.5.
